Measurements from ChEMBL document CHEMBL4387758, “Discovery and Biological evaluation of pyrimido[4,5-d]pyrimidine-2,4(1H,3H)-dione derivatives as potent Bruton's tyrosine kinase inhibitors” (Bioorg Med Chem, 2019).

Organism: Homo sapiens
Assay: Selectivity ratio of IC50 for inhibition of EGFR (unknown origin) to IC50 for inhibition of BTK (unknown origin)

Ratio IC50: 99
Structure (SMILES): C=CC(=O)Nc1cccc(-n2c(=O)n(C(C)C)c(=O)c3cnc(Nc4ccc(N5CCN(C)CC5)c(OC)c4)nc32)c1
